The numbers were not newly measured in PMC10837402, “Unnatural amino acid substitutions to improve in vivo stability and tumor uptake of ^68Ga-labeled GRPR-targeted TacBOMB2 derivatives for cancer imaging with positron emission tomography” (EJNMMI Radiopharmacy and Chemistry, 2024), which cites them from elsewhere.

The chains behind the UniProt entries cited, without tags or fusion partners. Where a name states a change or a piece, a line headed by the entry shows the natural chain unless it says otherwise.
UniProt P30550: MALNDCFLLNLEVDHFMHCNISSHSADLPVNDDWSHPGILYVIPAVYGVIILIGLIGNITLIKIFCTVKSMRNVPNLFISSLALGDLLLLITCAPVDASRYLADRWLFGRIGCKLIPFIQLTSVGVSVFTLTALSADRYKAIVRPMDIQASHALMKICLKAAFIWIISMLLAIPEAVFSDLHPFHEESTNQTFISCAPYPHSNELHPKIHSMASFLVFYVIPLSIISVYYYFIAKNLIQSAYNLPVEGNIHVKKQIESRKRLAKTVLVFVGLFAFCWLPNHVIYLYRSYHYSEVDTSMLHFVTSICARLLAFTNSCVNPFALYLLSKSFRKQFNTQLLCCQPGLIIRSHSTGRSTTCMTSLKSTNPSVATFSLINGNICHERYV

This data set addresses T1, GRPR (Homo sapiens, UniProt P30550).
T1 construct: generated using GRPR-expressing PC-3 cells; endogenous in cells; host or cells: PC-3 cells
As to conditions: ref Horwell, et al. ([1996]); read-out: GRPR binding affinity (Ki); cited from earlier work.
Usually Ki stands for the equilibrium dissociation constant of an inhibitor or competing ligand from its target. In the case of Ac-Bombesin(7–14), the Ki was 0.7 nM.

For the substance Ac-[NMe-His^12]Bombesin, the Ki is 0.4 nM. For Ac-[NMe-Gly^11]Bombesin(7–14), the Ki was 25 nM.
